The numbers were not newly measured in paper PMC4650712, “Conversion of cell-survival activity of Akt into apoptotic death of cancer cells by two mutations on the BIM BH3 domain” (Cell Death & Disease, 2015), which cites them from elsewhere.

Amino acid sequences for entries named in this document (tags omitted).
UniProt P10415, whole entry: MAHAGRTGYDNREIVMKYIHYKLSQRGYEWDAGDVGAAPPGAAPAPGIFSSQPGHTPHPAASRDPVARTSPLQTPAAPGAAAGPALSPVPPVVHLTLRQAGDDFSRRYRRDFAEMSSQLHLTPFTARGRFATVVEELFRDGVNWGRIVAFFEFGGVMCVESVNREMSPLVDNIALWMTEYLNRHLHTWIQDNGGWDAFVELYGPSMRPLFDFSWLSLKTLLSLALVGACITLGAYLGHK
UniProt Q07817, whole entry: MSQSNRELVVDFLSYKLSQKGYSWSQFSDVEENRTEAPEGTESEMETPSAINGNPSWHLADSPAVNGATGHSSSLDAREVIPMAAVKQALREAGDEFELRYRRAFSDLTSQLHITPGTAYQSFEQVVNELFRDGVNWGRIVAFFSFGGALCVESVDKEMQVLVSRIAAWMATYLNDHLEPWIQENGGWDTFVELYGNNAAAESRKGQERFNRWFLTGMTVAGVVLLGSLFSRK

For orientation: Kd means the free concentration of one partner at which half of the binding sites on the other are occupied at equilibrium, for simple one-to-one binding.

One data set concerns the target BCL-2 (Homo sapiens) (UniProt P10415).
A further data set addresses BCL-XL (Homo sapiens) (UniProt Q07817).

Turning to “BIM BH3 36-mer peptide BH3 (from UniProt O43521)”, the Kd with BCL-2 (Homo sapiens) and with BCL-XL (Homo sapiens) was 7 nM each time.
